The values below come from PMC8336524, “Yeast Bromodomain Factor 1 and Its Human Homolog TAF1 Play Conserved Roles in Promoting Homologous Recombination” (Advanced Science, 2021).

The target in one experiment is T1, 6xHis‐Bdf1 (yeast, UniProt P35817 1-686).
T1 construct: Bromodomain Factor 1 (Bdf1), yeast; source: E. coli (BL21), pET30a(+)
T1 sequence (looked up): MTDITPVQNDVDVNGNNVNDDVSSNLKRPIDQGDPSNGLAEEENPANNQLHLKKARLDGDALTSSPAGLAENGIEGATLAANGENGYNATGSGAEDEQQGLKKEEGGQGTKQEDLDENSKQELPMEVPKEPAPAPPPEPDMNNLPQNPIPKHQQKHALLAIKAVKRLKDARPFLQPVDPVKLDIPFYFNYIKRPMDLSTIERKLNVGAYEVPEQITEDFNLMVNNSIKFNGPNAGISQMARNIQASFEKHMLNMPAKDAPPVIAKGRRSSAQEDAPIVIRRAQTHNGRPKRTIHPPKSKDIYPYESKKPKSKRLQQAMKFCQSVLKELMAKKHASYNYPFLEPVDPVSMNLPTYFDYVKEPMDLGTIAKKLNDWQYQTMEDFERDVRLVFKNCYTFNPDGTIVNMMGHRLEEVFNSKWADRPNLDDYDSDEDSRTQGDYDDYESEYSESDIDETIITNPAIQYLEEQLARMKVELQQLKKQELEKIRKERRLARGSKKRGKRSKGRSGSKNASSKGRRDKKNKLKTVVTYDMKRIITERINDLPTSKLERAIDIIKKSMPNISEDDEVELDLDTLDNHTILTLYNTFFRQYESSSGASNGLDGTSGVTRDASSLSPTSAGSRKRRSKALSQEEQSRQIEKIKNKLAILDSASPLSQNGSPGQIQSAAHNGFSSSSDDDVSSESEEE
As to the kind of experiment: pull-down; GST or GST fusion proteins immobilized on GSH‐sepharose beads, incubated with His‐tagged proteins at 4 °C for 4 h; wash 20 mM Tris–HCl pH 7.4, 200 mM NaCl, 0.5 mM EDTA; Western blot with anti‐His antibody. Particulars: both partners purified. A general note: In western blotting, separated proteins are transferred to a membrane and probed.

In a further experiment the target is T2, GST‐Bdf1 (yeast, UniProt P35817 1-686).
T2 construct: Bromodomain Factor 1 (Bdf1), yeast, full length; also called Bromodomain Factor 1; WT Bdf1; source: E. coli (BL21), pGEX4T3; immobilized onto GSH‐sepharose beads
T2 sequence (looked up): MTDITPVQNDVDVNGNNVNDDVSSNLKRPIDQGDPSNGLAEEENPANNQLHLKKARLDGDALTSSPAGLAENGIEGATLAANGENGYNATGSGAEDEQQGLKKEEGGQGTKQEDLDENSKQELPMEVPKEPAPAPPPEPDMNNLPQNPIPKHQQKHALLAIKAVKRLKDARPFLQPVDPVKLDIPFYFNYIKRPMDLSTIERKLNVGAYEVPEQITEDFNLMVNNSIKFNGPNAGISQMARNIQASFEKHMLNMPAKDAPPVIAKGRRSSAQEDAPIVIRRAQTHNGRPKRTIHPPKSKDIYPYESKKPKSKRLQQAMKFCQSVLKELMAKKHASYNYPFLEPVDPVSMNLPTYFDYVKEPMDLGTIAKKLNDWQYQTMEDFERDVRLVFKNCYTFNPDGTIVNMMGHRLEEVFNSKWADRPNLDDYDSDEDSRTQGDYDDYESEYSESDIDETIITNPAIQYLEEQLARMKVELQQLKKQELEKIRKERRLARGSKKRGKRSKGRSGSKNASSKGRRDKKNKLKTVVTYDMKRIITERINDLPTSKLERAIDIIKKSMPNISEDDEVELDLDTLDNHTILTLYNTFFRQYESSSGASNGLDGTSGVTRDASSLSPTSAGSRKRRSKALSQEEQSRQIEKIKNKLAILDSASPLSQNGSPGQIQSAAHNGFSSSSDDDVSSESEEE
Described as above. Particulars: both partners purified.

B1: GST‐Rfa1 (natural protein, yeast, UniProt P22336 1-621, looked up)
chain: MSSVQLSRGDFHSIFTNKQRYDNPTGGVYQVYNTRKSDGANSNRKNLIMISDGIYHMKALLRNQAASKFQSMELQRGDIIRVIIAEPAIVRERKKYVLLVDDFELVQSRADMVNQTSTFLDNYFSEHPNETLKDEDITDSGNVANQTNASNAGVPDMLHSNSNLNANERKFANENPNSQKTRPIFAIEQLSPYQNVWTIKARVSYKGEIKTWHNQRGDGKLFNVNFLDTSGEIRATAFNDFATKFNEILQEGKVYYVSKAKLQPAKPQFTNLTHPYELNLDRDTVIEECFDESNVPKTHFNFIKLDAIQNQEVNSNVDVLGIIQTINPHFELTSRAGKKFDRRDITIVDDSGFSISVGLWNQQALDFNLPEGSVAAIKGVRVTDFGGKSLSMGFSSTLIPNPEIPEAYALKGWYDSKGRNANFITLKQEPGMGGQSAASLTKFIAQRITIARAQAENLGRSEKGDFFSVKAAISFLKVDNFAYPACSNENCNKKVLEQPDGTWRCEKCDTNNARPNWRYILTISIIDETNQLWLTLFDDQAKQLLGVDANTLMSLKEEDPNEFTKITQSIQMNEYDFRIRAREDTYNDQSRIRYTVANLHSLNYRAEADYLADELSKALLA
notes: Rfa1, subunit of Replication Protein A (RPA), yeast; also called full‐length GST Rfa1; source: E. coli (BL21), pGEX4T3; immobilized onto GSH‐sepharose beads
Regarding B1, the binding result with 6xHis‐Bdf1 was “binds”.

B2: 6xHis‐Rfa1 (natural protein, yeast, UniProt P22336 1-621, looked up)
chain: MSSVQLSRGDFHSIFTNKQRYDNPTGGVYQVYNTRKSDGANSNRKNLIMISDGIYHMKALLRNQAASKFQSMELQRGDIIRVIIAEPAIVRERKKYVLLVDDFELVQSRADMVNQTSTFLDNYFSEHPNETLKDEDITDSGNVANQTNASNAGVPDMLHSNSNLNANERKFANENPNSQKTRPIFAIEQLSPYQNVWTIKARVSYKGEIKTWHNQRGDGKLFNVNFLDTSGEIRATAFNDFATKFNEILQEGKVYYVSKAKLQPAKPQFTNLTHPYELNLDRDTVIEECFDESNVPKTHFNFIKLDAIQNQEVNSNVDVLGIIQTINPHFELTSRAGKKFDRRDITIVDDSGFSISVGLWNQQALDFNLPEGSVAAIKGVRVTDFGGKSLSMGFSSTLIPNPEIPEAYALKGWYDSKGRNANFITLKQEPGMGGQSAASLTKFIAQRITIARAQAENLGRSEKGDFFSVKAAISFLKVDNFAYPACSNENCNKKVLEQPDGTWRCEKCDTNNARPNWRYILTISIIDETNQLWLTLFDDQAKQLLGVDANTLMSLKEEDPNEFTKITQSIQMNEYDFRIRAREDTYNDQSRIRYTVANLHSLNYRAEADYLADELSKALLA
notes: Rfa1, subunit of Replication Protein A (RPA), yeast; also called RPA (in the text on the truncations); source: E. coli (BL21), pET30a(+)
In the case of B2, in the experiment with GST‐Bdf1, the binding result is reported as “binds”.
